The chains behind the UniProt entries cited, without tags or fusion partners.
UniProt P30411, whole entry: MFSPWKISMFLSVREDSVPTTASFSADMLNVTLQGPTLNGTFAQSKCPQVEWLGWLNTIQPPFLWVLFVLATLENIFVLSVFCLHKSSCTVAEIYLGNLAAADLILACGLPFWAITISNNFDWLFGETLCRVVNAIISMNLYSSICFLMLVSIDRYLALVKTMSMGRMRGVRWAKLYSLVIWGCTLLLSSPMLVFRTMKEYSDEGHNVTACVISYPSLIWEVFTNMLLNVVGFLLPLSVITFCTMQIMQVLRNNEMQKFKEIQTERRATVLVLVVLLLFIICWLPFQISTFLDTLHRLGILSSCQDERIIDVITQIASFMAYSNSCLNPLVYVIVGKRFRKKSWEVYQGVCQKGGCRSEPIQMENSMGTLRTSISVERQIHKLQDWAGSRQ

According to ChEMBL document CHEMBL1955756, “Design and synthesis of novel sulfonamide-containing bradykinin hB(2) receptor antagonists. Synthesis and structure-relationships of α,α-tetrahydropyranylglycine” (Bioorg Med Chem, 2012):

Tests used:
Type in all cases: functional, cell-based
B2 bradykinin receptor [1] = molecular target: T1, B2 bradykinin receptor (Homo sapiens, UniProt P30411); assay: (§1) Reversible antagonist activity at human bradykinin B2 receptor expressed in dhfr-deficient CHO cells assessed as inhibition of bradykinin-induced inositol monophosphate accumulation at 3 uM preincubated for 15 mins prior bradykinin induction measured after 30 mins washout by liquid scintillation spectrometry
Summary of the method: (§2)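 Washout in the IP accumulation assay in CHO/hB2R cells: antagonist (3 µM or 100 nM) pre-incubated 15 min, with medium then fully replaced every 15 min in washed cells. BK (2 nM) added and the reaction stopped after one hour; IP formed quantified. Expressed as % inhibition of time-matched BK responses in vehicle-pre-incubated cells.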

B2 bradykinin receptor [2] = molecular target: T1, B2 bradykinin receptor; assay: as §1, with “45” for “30”; summary of the method: as §2
B2 bradykinin receptor [3] = molecular target: T1, B2 bradykinin receptor; assay: as §1, with “15” for “30”; summary of the method: as §2

inhibition (B2 bradykinin receptor [1]): 60% | inhibition (B2 bradykinin receptor [2]): 52% | inhibition (B2 bradykinin receptor [3]): 96%
Structure (SMILES): Cc1cc(C)c2cccc(OCc3c(Cl)ccc(S(=O)(=O)NC4(C(=O)N5CCN(C(=O)[C@@H](N)CCC[N+](C)(C)C)CC5)CCOCC4)c3Cl)c2n1 [FASITIBANT]
